# Results reported in PMC4575208, “Characterization of Flavin-Containing Opine Dehydrogenase from Bacteria” (PLoS ONE, 2015).
# Sequences of proteins named here, by UniProt entry; tags and fusion partners are left off.
# UniProt Q88EK5, entry or part of it: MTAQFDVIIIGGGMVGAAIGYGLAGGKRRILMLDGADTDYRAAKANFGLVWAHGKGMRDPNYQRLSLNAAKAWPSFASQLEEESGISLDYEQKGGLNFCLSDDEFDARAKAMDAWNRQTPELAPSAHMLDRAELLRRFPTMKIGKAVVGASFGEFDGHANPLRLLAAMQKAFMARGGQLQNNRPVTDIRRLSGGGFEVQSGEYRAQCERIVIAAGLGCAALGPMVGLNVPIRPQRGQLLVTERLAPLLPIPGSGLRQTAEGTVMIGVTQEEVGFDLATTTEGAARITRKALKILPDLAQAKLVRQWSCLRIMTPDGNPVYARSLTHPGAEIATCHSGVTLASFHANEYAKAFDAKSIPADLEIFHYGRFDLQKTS
# UniProt Q88EK6, entry or part of it: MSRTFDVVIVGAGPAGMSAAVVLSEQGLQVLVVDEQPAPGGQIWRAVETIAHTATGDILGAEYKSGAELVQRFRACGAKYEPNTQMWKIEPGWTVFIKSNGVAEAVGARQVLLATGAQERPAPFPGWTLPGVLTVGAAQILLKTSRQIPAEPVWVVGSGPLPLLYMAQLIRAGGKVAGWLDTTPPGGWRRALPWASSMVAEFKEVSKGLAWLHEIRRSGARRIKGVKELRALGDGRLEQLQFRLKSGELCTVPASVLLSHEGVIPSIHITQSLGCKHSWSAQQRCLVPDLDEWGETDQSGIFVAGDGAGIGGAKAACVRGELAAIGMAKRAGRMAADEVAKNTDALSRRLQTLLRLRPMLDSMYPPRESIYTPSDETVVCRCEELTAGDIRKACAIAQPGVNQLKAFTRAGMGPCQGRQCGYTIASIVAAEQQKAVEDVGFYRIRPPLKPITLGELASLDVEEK
# Key:
# [1] = molecular target: T1, PpOdhB (beta-subunit of PpOpnDH) (Pseudomonas putida, UniProt Q88EK5)
# T1 construct: gene ooxB
# [2] = molecular target: T2, PpOdhA (alpha-subunit of PpOpnDH) (Pseudomonas putida, UniProt Q88EK6)
# T2 construct: gene ooxA
smiles,measurement,setting,value
Cc1cc2nc3c(=O)[nH]c(=O)nc-3n(C[C@H](O)[C@H](O)[C@H](O)COP(=O)(O)OP(=O)(O)OC[C@H]3O[C@@H](n4cnc5c(N)ncnc54)[C@H](O)[C@@H]3O)c2cc1C [FAD],co-purified flavin released by heat denaturation and identified by HPLC; absorpt,[1],"Only FAD was extracted from (almost) inactive OdhA, OdhB, OdhAB (co-expression of OdhA+B), OdhBC, and OdhAC"
same,co-purified flavin released by heat denaturation and identified by HPLC; absorpt,[2],"Only FAD was extracted from (almost) inactive OdhA, OdhB, OdhAB (co-expression of OdhA+B), OdhBC, and OdhAC"
